Tested on: SET-2
Test: Antiproliferative activity against human SET2 cells harboring JAK2 V617F mutant assessed as inhibition of cell viability incubated for 48 hrs by CellTiterGlo assay
Type: functional, cell-based
Settings: SET-2, 48 h

C1=N/C2=N/c3ccc(OCCN4CCCC4)c(c3)COC/C=C/COCc3cccc(c3)C(=C1)N2 [PACRITINIB]
IC50: 217 nM

Source: ChEMBL document CHEMBL5705894, “SB1518, a novel macrocyclic pyrimidine-based JAK2 inhibitor for the treatment of myeloid and lymphoid malignancies” (Leukemia, 2011)
